# Target: PIM1 (Homo sapiens, UniProt P11309)
# Amino acid sequences for entries named in this document (tags omitted).
# UniProt P11309, whole entry: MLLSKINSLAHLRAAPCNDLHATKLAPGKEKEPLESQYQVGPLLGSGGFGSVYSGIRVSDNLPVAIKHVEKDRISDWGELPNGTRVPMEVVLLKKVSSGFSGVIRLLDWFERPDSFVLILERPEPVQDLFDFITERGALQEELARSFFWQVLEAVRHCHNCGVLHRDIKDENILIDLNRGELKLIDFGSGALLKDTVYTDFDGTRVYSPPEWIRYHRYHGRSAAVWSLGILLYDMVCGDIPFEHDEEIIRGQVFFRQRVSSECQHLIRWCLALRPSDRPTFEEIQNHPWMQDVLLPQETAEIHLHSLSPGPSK
# Test: PIM1 inhibition assay (ligand-binding assay, manufacturer's instructions)
# Format: biochemical
# Conditions: read-out: IC50 (μM): mean ± SD
substance,measurement,value
Rhodiosin,IC50,96 ± 3.2 µM
